Yeast mating assay 2: variants of the scFv Ab-95

The measurements come from Engelhart et al. 2022 (doi:10.1038/s41597-022-01779-4) through the FLAb antibody collection.

Target: peptide PDVDLGDISGINAS, taken from heptad repeat 2 (HR2) of SARS-CoV-2 spike.

Each scFv is VH, three GGGGS repeats, VL, as in the parent Ab-95, and differs from it in the CDRs of the light chain only.
VH: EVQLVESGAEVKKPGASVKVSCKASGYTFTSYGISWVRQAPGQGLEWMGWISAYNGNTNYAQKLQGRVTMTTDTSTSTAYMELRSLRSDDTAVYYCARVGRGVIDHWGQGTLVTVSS
VL: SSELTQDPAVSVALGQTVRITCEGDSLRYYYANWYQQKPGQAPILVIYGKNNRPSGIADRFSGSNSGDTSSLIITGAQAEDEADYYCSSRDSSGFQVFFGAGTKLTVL

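Variants in AAYL52 differ from the parent at up to three CDR positions; double and triple changes were sampled at random. The scFvs were displayed on barcoded MATa yeast, the peptide on MATalpha yeast. Mating (16 h, 30 °C) was followed by selection of diploids and sequencing of their barcodes. Read counts were normalised to the haploid input and turned into Kd by a linear fit to BCL2-family pairs of known affinity, for each replicate. Mating was done three times.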

Substitutions are numbered in sequence along the VL above, starting at 1 (not Kabat).
Each Kd is an estimate from the mating assay, the geometric mean of the replicates in which the pair was seen; lower is stronger.
"not detected" means that the variant was in the library but no mating with the target was seen in any replicate; the authors take this as a sign of poor binding, and no number exists.

changes	Kd	seen in
G24L A32W S55G	8.5 µM	2 of 3
S88G S92I V97Q	390 nM	3 of 3
L27D N51M S92L	8.8 µM	1 of 3
S26F Q96W V97D	not detected	0 of 3
R53C F95A V97F	35 µM	2 of 3
N51M S55L	3.1 µM	3 of 3
G24V L27H V97Y	not detected	0 of 3
R28I K50T S55D	890 nM	3 of 3
E23K R53M F98L	210 nM	3 of 3
Y31I R53Y D91G	120 µM	1 of 3
K50P N51I Q96Y	11 µM	1 of 3
L27N R28V N52L	94 nM	3 of 3
L27F A32I F98L	3.4 µM	3 of 3
Y30T R53W F98Q	6.2 µM	1 of 3
N52I S55I S88V	5.2 µM	3 of 3
K50L V97N	890 nM	2 of 3
D25M S88W R90T	17 µM	2 of 3
D25P R53N V97N	1.1 µM	3 of 3
Y30L N51H S55Y	5.8 µM	3 of 3
E23T N33R R90F	17 µM	3 of 3
A32V N52C S89Q	140 µM	3 of 3
R90Y S92C V97Q	660 nM	3 of 3
S88P S89E	11 µM	2 of 3
N52D Q96V F98D	1.2 µM	1 of 3
R28D G49L K50W	not detected	0 of 3
E23P D25E R28N	1.7 µM	2 of 3
E23V Y29G G49P	not detected	0 of 3
R28M G94K Q96V	800 nM	3 of 3
G24K S55V S93Y	7.2 µM	2 of 3
R28S S93W F95P	630 nM	3 of 3
E23Y G24A A32C	7.8 µM	3 of 3
E23K G24Q N51F	not detected	0 of 3
R90E S92H V97W	130 nM	3 of 3
Y31H N52M P54Y	400 nM	3 of 3
K50I S55Q S88L	5.4 µM	2 of 3
L27H S88T Q96M	not detected	0 of 3
N51H N52K Q96S	25 µM	2 of 3
E23I L27W K50W	210 µM	1 of 3
N33H R53Q S88E	75 µM	1 of 3
L27W Y29C R90A	4.0 µM	1 of 3
S92H Q96R V97L	73 nM	3 of 3
L27Y Y29F	2.3 µM	2 of 3
S26N L27F R53L	4.8 µM	1 of 3
P54W Q96W V97R	2.9 µM	1 of 3
G24N Y29K R53G	not detected	0 of 3
R28S Q96D V97F	350 nM	3 of 3
N51I P54G D91C	15 µM	3 of 3
G49E R53L	not detected	0 of 3
Y29H S55C	140 nM	3 of 3
E23C G24A S26L	13 µM	1 of 3
G24L N52D G94E	2.1 µM	2 of 3
Y29V S89K Q96E	7.2 µM	3 of 3
N52M S55A S92Y	890 nM	3 of 3
D25Q N33P K50A	170 µM	1 of 3
Y30M S93F F95P	6.0 µM	2 of 3
P54T S88Y V97H	2.9 µM	3 of 3
L27T Y31G S92C	220 nM	3 of 3
L27F G94Y F98G	11 µM	1 of 3
Y31L S92D S93Y	220 nM	3 of 3
S55F D91R S92I	31 µM	1 of 3

4 of these entries, quoted again:

changes,Kd,seen in
Y31I R53Y D91G,120 µM,1 of 3
L27N R28V N52L,94 nM,3 of 3
K50I S55Q S88L,5.4 µM,2 of 3
E23C G24A S26L,13 µM,1 of 3

Three control strains display no target. For library AAYL52, 28% of the pairings with them gave a signal, with a median of 8.2 µM and one signal in twenty below 800 nM, so weak values seen in few replicates may be background.
For reference, the parent read 200 nM as the reference entry and 180 nM as a member of this library.